# Literature values, collected in patent publication US20210069110A1, “NON-AQUEOUS COMPOSITION HAVING DRUG CARRIED THEREIN, AND METHOD FOR PRODUCING SAME” (Techno Guard Co. Ltd., priority 2017, published 2021).
# Conditions: General Notice of Japanese Pharmacopoeia
substance,measurement,value
Dexamethasone palmitate,Water solubility of drug (Expression in Japanese Pharmacopoeia),Practically insoluble
